The text below walks through data of patent US11680056B2, “MK2 inhibitors and uses thereof” (Xinthera, Inc., priority 2021, dated 2023).

Amino acid sequences for entries named in this document (tags omitted). Residues count along the entry.
UniProt P49137, 46-400 limits assumed: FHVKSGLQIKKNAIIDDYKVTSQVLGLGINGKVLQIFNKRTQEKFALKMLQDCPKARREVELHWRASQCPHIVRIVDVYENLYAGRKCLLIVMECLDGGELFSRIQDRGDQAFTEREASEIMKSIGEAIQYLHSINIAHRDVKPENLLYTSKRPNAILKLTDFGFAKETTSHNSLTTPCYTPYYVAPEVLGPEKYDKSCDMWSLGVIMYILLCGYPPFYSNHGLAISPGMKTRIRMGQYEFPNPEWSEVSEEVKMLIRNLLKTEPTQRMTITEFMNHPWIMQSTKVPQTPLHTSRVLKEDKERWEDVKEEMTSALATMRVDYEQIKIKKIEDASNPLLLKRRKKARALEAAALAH
UniProt Q16539, whole entry: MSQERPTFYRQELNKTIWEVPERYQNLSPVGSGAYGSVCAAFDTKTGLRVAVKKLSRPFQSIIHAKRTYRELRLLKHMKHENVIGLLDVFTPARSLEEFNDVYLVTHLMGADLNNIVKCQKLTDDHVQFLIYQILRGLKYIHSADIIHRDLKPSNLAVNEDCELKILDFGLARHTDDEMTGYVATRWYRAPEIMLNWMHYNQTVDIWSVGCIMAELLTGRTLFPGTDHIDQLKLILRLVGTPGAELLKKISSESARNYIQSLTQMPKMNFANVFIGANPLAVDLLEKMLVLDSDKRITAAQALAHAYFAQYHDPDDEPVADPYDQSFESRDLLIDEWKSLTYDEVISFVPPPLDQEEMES

Assay [1] has as its target p38a/MK2 (Homo sapiens (Human), UniProt P49137+Q16539). Kind of assay: p38a/MK2 biochemical assay: activation of MK2 by p38, FITC-HSP27 peptide phosphorylation (IMAP FP). The note with it: 10-point 1:3 dilution, top dose 1 μM; 60 pM active p38a, 1 nM inactive MK2, 10 μM ATP, 2 h incubation. As for the experimental part: (§1) Expression vectors of the recombinant MK2 and PRAK kinases were constructed by cloning of the codon optimized gene sequences of MK2 (Uniprot ID P49137, amino acid fragment F46-H400), or PRAK (Uniprot ID Q81W41, amino acid fragment M1-Q471) into pGEX-4T1 (GE) for over expression of these kinases with N-terminal GST-tag. Protein expression was carried out in E. coli BL21 by growing the hosts in TB medium, induction of protein expression with 0.5 mM IPTG at approximate 0.8 OD600, and incubation of the cultures at 18° C. for 14-20 hours afterwards. The harvested cells were resuspended in […] of Lysis buffer (50 mM Tris-HCl, pH 8.0, 500 mM NaCl, 1 mM DTT, 5% glycerol, and 1 mM PMSF) per gram of wet cell mass and homogenized at 4° C. in a microfluidizer (ATS, Suzhou, China) at 14,000 psi pressure, 3 passes. The cell lysates were clarified by centrifugation and the supernatants containing the GST-fusion proteins were purified by affinity chromatography using GSH-Sepharose (GE) gravity flow columns pre-equilibrated in Buffer A (50 mM Tris-HCl, pH 8.0, 500 mM NaCl, 1 mM DTT, and 5% glycerol). […]
(§2) This study evaluates the inhibitory potency of invention compound on p38/MK2 pathway vs p38/PRAK pathway. More specially the compound concentration (IC50) was determined that inhibited half of the maximal activation of MK2 or PRAK by p38. […] The MK2 and PRAK activity were determined by the phosphorylation level of HSP27 peptide conjugated with FITC.
(§3) After 2 h incubation of the reaction mixture with various concentration of invention compound (200 nL), 60 μL 1×IMAP solution Mixture (Molecular Devices, Cat R8127) was added to the reaction mixture and incubated for another half hour. The signal was then read by Synergy™ Neo2 Multi-Mode Microplate Reader with filter setting (Ex/Em=485 nm/FITC FP-P pol 528 nm & FITC FP-S pol 528 nm)
(§4) The signal was then normalized to vehicle control and fitted in Xfit to generate IC50. The selectivity of MK2 over PRAK was calculated by the formular Selectivity=IC50 of PRAK/IC50 of MK2.

Assay [2] addresses p38a/PRAK (Homo sapiens (Human), UniProt Q16539). Kind of assay: p38a/PRAK biochemical assay: activation of PRAK by p38, FITC-HSP27 peptide phosphorylation (IMAP FP). The following applies: 10-point 1:3 dilution, top dose 300 μM; 60 pM active p38a, 1 nM inactive PRAK, 10 μM ATP, 2 h incubation. The protocol: as §1, §2, §3, §4

On to `CNC(=O)C(C)(C)c1nccc(-c2nccc(-n3c(C)cc(OCc4ncc(F)cc4F)c(Cl)c3=O)c2C)n1` [60A], for which, in assay [1], the “p38a/MK2 (1 μM) Enzyme pIC50” value is less than 7.0. Besides, the “p38a/PRAK Enzyme pIC50” value in assay [2] was less than 3.5.

On to `Cc1cnc(-n2ccc(C(C)(C)O)n2)c(F)c1-n1c(C)cc(OCc2ncc(F)cc2F)c(Cl)c1=O`, for which the “p38a/MK2 (1 μM) Enzyme pIC50” value in assay [1] is reported as less than 6.0. In assay [2], the “p38a/PRAK Enzyme pIC50” value is listed as less than 3.5.

Consider `CNC(=O)C(C)(C)c1nccc(-c2nccc(-n3c(C)cc(OCc4ncc(F)cc4F)c(Cl)c3=O)c2C)n1` [60B], for which the “p38a/MK2 (1 μM) Enzyme pIC50” value in assay [1] turned out to be 7.6. The “p38a/PRAK Enzyme pIC50” value in assay [2] was determined as 4.7.
